# Laboratory results from patent US20250332198A1, “TARGETED ELIMINATION OF SENESCENT CELLS BY GAMMA-DELTA T CELLS” (SENS RESEARCH FOUNDATION, priority 2022, published 2025).
# Tested on: human PBMC
# Experiment: Enrichment of γδT cells from human PBMC, flow analysis after 10 days of expansion
# Assay type: cell-based
# Settings: PBMC treated 24 hours, then IL-2 for 10 days
# Procedure: The γδT cells were isolated and enriched from human blood as described in a published protocol using zoledronate and interleukin-2 (see, e.g., Kondo, M. et al. Expansion of human peripheral blood gamma delta T cells using zoledronate. J Vis Exp). The blood samples were obtained from healthy donors (n=5, age range 20-42) in heparin coated vacutainers. All subjects provided informed written consent. […] Blood samples were diluted with 1× PBS (Corning; Cat #21-031-CV) and combined with Lymphocyte Separation Medium (Corning; Cat #25-072-CI) followed by density gradient centrifugation, according to the manufacturer's instructions. The aliquot of PBMC was analyzed for the proportion of the γδ T cells by flow cytometry. […]
# Cells were resuspended in 100 μl of PBS. […] Cell viability was determined by Propidium iodide (PI) staining and live cells were gated for downstream analysis. Data were analyzed using Flowlogic software (Miltenyi Biotech, Germany).
# The γδT cells were isolated and enriched from human blood using previously published protocol (Kondo et al, Cytotherapy 10, 842-856, 2008). […] The aliquot of PBMC was analyzed for the proportion of the γδT cells by flow cytometry. […]
# Cells were resuspended in 100 μl of PBS. […] Cell viability was determined by PI staining and live cells were gated for downstream analysis. Data were analyzed using Flowlogic™ software. […]
substance,measurement,value
"IL-2: recombinant human interleukin-2, control culture without zoledronate",γδ TCR and CD3-expressing T cells,less than 10%
